These are literature values, as cited in patent US20040241244A1, “Neuronal growth enhancement by prostaglandin compositions and methods” (NexMed (Holdings) Inc., priority 2003, published 2004).

By UniProt entry, the sequences of proteins in these tests, tags left out. Where a name states a change or a piece, a line headed by the entry shows the natural chain unless it says otherwise.
UniProt Q62053: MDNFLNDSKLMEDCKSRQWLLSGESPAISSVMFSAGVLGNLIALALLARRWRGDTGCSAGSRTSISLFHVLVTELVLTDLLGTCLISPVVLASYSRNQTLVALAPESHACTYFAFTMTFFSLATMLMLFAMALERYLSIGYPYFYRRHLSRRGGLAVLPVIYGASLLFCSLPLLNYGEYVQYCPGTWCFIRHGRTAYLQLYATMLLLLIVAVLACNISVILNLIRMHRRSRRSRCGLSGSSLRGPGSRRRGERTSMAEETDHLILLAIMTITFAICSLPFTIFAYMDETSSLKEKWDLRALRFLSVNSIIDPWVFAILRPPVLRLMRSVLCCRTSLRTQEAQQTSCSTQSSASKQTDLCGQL
UniProt P32240: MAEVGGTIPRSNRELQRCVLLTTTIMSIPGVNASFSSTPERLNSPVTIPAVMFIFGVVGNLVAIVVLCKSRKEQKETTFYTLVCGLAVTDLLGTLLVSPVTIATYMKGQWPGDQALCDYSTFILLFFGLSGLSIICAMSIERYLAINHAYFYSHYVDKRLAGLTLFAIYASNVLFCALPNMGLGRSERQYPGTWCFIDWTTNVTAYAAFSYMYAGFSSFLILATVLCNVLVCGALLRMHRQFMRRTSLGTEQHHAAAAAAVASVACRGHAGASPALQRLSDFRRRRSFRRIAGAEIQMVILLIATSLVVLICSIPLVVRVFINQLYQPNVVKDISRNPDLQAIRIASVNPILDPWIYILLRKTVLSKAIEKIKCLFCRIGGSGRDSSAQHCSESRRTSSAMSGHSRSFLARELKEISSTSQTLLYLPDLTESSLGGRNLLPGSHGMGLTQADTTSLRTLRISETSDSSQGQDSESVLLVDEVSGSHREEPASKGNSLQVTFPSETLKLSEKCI

Series [1] concerns the target EP2 receptor (Mus musculus, UniProt Q62053). The following applies: read-out: affinity for the EP2 receptor; cited from earlier work.
Series [2] has as its target EP4 receptor (Mus musculus, UniProt P32240). The following applies: read-out: affinity for the EP4 receptor; cited from earlier work.

Take Prostaglandin E1 [PGE1]: the Kd in series [1] is around 10 nM; in series [2] it was around 2 nM.
